pIC50: −log10 of the molar value.
molecular target: T1, phosphorylation of Y397-FAK in MDA-231-LNA cells (Homo sapiens, UniProt Q05397); experiment: cell-based
T1 construct: endogenous in cells; host or cells: MDA-231-LNA cells

Protein sequences, listed by entry. Tags and fused reporters are not part of them.
UniProt Q05397, whole entry: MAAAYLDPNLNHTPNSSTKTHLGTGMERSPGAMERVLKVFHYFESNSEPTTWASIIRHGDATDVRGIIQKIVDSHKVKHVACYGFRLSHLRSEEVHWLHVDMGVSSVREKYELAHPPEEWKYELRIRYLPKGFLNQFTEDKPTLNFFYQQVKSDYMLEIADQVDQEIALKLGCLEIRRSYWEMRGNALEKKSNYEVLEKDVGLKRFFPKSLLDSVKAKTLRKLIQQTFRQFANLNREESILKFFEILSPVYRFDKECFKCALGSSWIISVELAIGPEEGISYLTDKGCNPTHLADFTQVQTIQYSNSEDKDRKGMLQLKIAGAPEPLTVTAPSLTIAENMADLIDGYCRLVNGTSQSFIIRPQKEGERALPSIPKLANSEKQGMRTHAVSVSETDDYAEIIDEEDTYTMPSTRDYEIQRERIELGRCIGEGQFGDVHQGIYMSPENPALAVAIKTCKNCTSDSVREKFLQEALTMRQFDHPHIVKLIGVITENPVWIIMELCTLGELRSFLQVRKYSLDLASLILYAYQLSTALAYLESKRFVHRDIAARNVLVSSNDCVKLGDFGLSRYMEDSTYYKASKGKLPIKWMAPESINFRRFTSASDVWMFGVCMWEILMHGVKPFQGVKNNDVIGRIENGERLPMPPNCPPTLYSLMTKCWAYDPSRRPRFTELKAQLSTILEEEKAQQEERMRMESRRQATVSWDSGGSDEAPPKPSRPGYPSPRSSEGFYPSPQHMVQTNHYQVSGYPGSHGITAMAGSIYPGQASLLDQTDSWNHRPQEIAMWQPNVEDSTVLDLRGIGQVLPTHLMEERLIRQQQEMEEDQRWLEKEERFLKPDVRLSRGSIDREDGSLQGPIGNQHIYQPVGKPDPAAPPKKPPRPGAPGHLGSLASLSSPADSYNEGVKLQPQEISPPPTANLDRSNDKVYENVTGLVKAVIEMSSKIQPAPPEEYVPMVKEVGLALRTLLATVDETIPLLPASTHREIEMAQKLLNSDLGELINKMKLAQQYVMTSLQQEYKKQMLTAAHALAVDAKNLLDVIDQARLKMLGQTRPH

SMILES	pIC50
NC(=O)Cc1ccccc1CCc1nc(Nc2ccc(C3CCNCC3)cc2)ncc1C(F)(F)F [Compound 11, 2-(2-(2-(2-((4-(Piperidin-4-yl)phenyl)amino)-5-(trifluoromethyl)pyrimidin-4-yl)ethyl)phenyl)acetamide]	6.94
CN1CCN(c2cccc(Nc3ncc(C(F)(F)F)c(CCc4ccccc4CC(N)=O)n3)c2)CC1 [Compound 17, 2-(2-(2-(2-((3-(4-Methylpiperazin-1-yl)phenyl)amino)-5-(trifluoromethyl)pyrimidin-4-yl)ethyl)phenyl)acetamide]	7.22
CN1CCN(c2cccc(Nc3ncc(C(F)(F)F)c(CCc4cccc(C(N)=O)c4)n3)c2)CC1 [Compound 6, 3-(2-(2-((3-(4-Methylpiperazin-1-yl)phenyl)amino)-5-(trifluoromethyl)pyrimidin-4-yl)ethyl)benzamide]	6.36
CNC(=O)Cc1ccccc1CCc1nc(Nc2cccc(N3CCN(C)CC3)c2)ncc1C(F)(F)F [Compound 18]	6.06
NC(=O)Cc1ccccc1CCc1nc(Nc2ccc(N3CCNCC3)cc2)ncc1C(F)(F)F [Compound 1, 2-(2-(2-(2-((4-(piperazin-1-yl)phenyl)amino)-5-(trifluoromethyl)pyrimidin-4-yl)ethyl)phenyl)acetamide]	7.23
CN1CCCCC1c1ccc(Nc2ncc(C(F)(F)F)c(CCc3ccccc3CC(N)=O)n2)cc1 (stereo not shown) [Compound 9]	6.67
CCN1CCC(c2ccc(Nc3ncc(C(F)(F)F)c(CCc4ccccc4CC(N)=O)n3)cc2)CC1 [Compound 31, 2-(2-(2-(2-((4-(1-Ethylpiperidin-4-yl)phenyl)amino)-5-(trifluoromethyl)pyrimidin-4-yl)ethyl)phenyl)acetamide]	7.41
NC(=O)Cc1ccccc1CCc1nc(Nc2ccc(C3CCCNC3)cc2)ncc1C(F)(F)F (stereo not shown) [Compound 4, 2-(2-(2-(2-((4-(Piperidin-3-yl)phenyl)amino)-5-(trifluoromethyl)pyrimidin-4-yl)ethyl)phenyl)acetamide]	6.85
CN1CCN(c2ccc(Nc3ncc(C(F)(F)F)c(CCc4cccc(C(N)=O)c4)n3)cc2)CC1 [Compound 2, 3-(2-(2-((4-(4-Methylpiperazin-1-yl)phenyl)amino)-5-(trifluoromethyl)pyrimidin-4-yl)ethyl)benzamide]	7.24
NC(=O)Cc1ccccc1CCc1nc(Nc2ccc(C3CCCCN3)cc2)ncc1C(F)(F)F (stereo not shown) [Compound 8, 2-(2-(2-(2-((4-(Piperidin-2-yl)phenyl)amino)-5-(trifluoromethyl)pyrimidin-4-yl)ethyl)phenyl)acetamide]	6.91
NC(=O)Cc1ccccc1CCc1nc(Nc2ccc(N3CCC(N)CC3)cc2)ncc1C(F)(F)F [Compound 20, 2-(2-(2-(2-((4-(4-Aminopiperidin-1-yl)phenyl)amino)-5-(trifluoromethyl)pyrimidin-4-yl)ethyl)phenyl)acetamide]	7.89
NC(=O)Cc1ccccc1CCc1nc(Nc2ccc(C3CNCCO3)cc2)ncc1C(F)(F)F (stereo not shown) [Compound 22, 2-(2-(2-(2-((4-(morpholin-2-yl)phenyl)amino)-5-(trifluoromethyl)pyrimidin-4-yl)ethyl)phenyl)acetamide]	7.64
CN1CCN(c2ccc(Nc3ncc(C(F)(F)F)c(CCc4ccccc4CC(N)=O)n3)cc2)CC1 [Compound 3]	7.57
CC(C(N)=O)c1ccccc1CCc1nc(Nc2ccc(C3CCNCC3)cc2)ncc1C(F)(F)F (stereo not shown) [Compound 12, 2-(2-(2-(2-((4-(Piperidin-4-yl)phenyl)amino)-5-(trifluoromethyl)pyrimidin-4-yl)ethyl)phenyl)propanamide]	6.28
NC(=O)Cc1ccccc1CCc1nc(Nc2ccc3c(c2)CCNC3)ncc1C(F)(F)F [Compound 21, 2-(2-(2-(2-((1,2,3,4-Tetrahydroisoquinolin-6-yl)amino)-5-(trifluoromethyl)pyrimidin-4-yl)ethyl)phenyl)acetamide]	9.00
CNC(=O)Cc1ccccc1CCc1nc(Nc2ccc(N3CCNCC3)cc2)ncc1C(F)(F)F [Compound 14, N-Methyl-2-(2-(2-(2-((4-(piperazin-1-yl)phenyl)amino)-5-(trifluoromethyl)pyrimidin-4-yl)ethyl)phenyl)acetamide]	6.24
